From PubChem
In the library only some 0.46% were active in any assay of this set; here they are far more common.
PINK1 expr mod = modulators of PINK1 expression; PINK1 immunofluorescence, high-content cytometry, 24 h; Potency, µM (doses to about 76.6 µM), for the others: at the highest dose activation (PINK1 increase), actives largely listed as activators; 410,000 tested, 0.2% active; AID 624263; active means well fitted activation curve with a large enough effect; inconclusive means small, poorly fitted or top-dose-only effect; cell line not stated here; further: potency means the concentration at half of the fitted maximal effect; % of control where 0% means no effect; nearly all actives have a fitted effect of over 65% in size
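Decision-based qHTS: stable cells, 24 h exposure to five compound concentrations, CCCP as control. Fixed cells stained for PINK1 plus nuclear, mitochondrial and cell markers, cytometer read.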
B2AR arrestin = recruits beta-arrestin to the human beta2-adrenergic receptor. P07550. beta-arrestin recruitment to beta2AR, cell-based reporter. Potency, µM (titrated, usually from 46.1 µM), for the others: at the highest dose activation, usual class: activators. 330,000 tested, 0.02% active. AID 492947;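 further: potency means the concentration at half of the fitted maximal effect; 0% = DMSO controls and full agonism = EC100 isoproterenol or metaproterenol; nearly all actives have a fitted effect of over 65% in size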
Pin1 inhibitor = human Pin1 inhibition. Q13526. AID 504891. 390,000 tested, 0.009% active. Potency, µM (doses to about 115 µM), without a hit: at the top dose activity, negative = inhibition, actives largely listed as inhibitors. Pin1 FP peptide displacement, HiFluor488, 10 min; active means well fitted inhibition curve with a large enough effect in the polarisation, with a control signal flat, not every such curve was filed as active; inconclusive means small, poorly fitted or top-dose-only effect, or effect the other way, or a change in a side signal; inactive means no such curve, though single readings can be large or run the other way; the % refers to the polarisation; further: potency means the concentration at half of the fitted maximal effect; on the % scale 0 is the no-effect control and ±100 the full control effect
PKM2 act = increases activity of human pyruvate kinase M2. P14618. purified PKM2, Kinase-Glo ATP luminescence, activation; response scale: 0% is enzyme alone, no compound. 260,000 tested, 0.34% active. AID 1631. Potency, µM (titrated, usually from 57.5 µM), without a hit: at the top dose activation, most hits filed as activators; further: potency means the concentration at half of the fitted maximal effect; on the % scale 0 is the no-effect control and ±100 the full control effect; nearly all actives have a fitted effect of over 55% in size
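Kinase-Glo luminescence reports ATP generated from ADP (0.1 mM) and PEP (0.5 mM) by purified hPK-M2 after 1 h at room temperature, pH 7.2 imidazole buffer; intermediate enzyme activity allows detecting inhibitors and activators.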
miR-21 FLuc = miR-21 reporter, rising signal. HeLa miR-21 FLuc reporter, luciferase, 48 h. Potency, µM (highest dose often 38.3 µM), for the others: at the highest dose reporter change, positive = more light. 340,000 tested, under 10 active. AID 2288; active = well fitted rising curve with a large enough effect; inconclusive = small, poorly fitted or top-dose-only effect; inactive = no such curve, though single readings can be large or run the other way;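 further: % of control where 0% means no effect; miR-21 action dims this reporter so a rising signal means less miR-21 action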
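HeLa cells endogenously expressing miR-21, stably carrying CMV-driven firefly luciferase with a downstream miR-21 binding site, 2000 cells/well. Titrations up to approximately 40 uM, 48 hours; luciferase luminescence read.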
Chronic BCR inh = inhibitors of chronic active B-cell receptor signaling. ABC-DLBCL IkBa-CBG/CBR reporter, luminescence ratio, 4 h. Potency, µM (series often up to 46.1 µM), for the others: top-dose activity change, negative = inhibition, hits mostly inhibitors. 340,000 tested, 0.05% active; active means well fitted inhibition curve with a large enough effect in the signal ratio, with a control signal flat, not every such curve was filed as active; inconclusive means small, poorly fitted or top-dose-only effect, or effect the other way, or a change in a side signal; the % refers to the signal ratio;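 further: potency means the concentration at half of the fitted maximal effect; plate controls were basal doxycycline-induced cells for no effect and cells given 10 µM MG132 for full effect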
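TMD8 ABC-DLBCL cells carrying doxycycline-inducible green luciferase fused to IkappaBalpha plus unfused red luciferase were exposed to compounds (up to 46 uM) for 4 hrs at 37C. Activity came from the overlap-corrected green/red luminescence ratio.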
* marks the source's active call; other numbers are inactive results; ? = inconclusive; nt = no result; ! = not confirmed by another sample. Unless noted, the call rests on the fitted dose curve; in most records, active means well fitted curve in the direction sought with a large enough effect; inconclusive means small, poorly fitted or top-dose-only effect, or another doubt; inactive means no such curve, though single readings can be large; an effect the other way counts as inactive or inconclusive.

Every second line gives: PINK1 expr mod | B2AR arrestin | Pin1 inhibitor | PKM2 act | miR-21 FLuc | Chronic BCR inh
- CCN1CC=C2C(C1)C(c1ccc(Cl)s1)C(C#N)=C(N)C2(C#N)C#N (configuration not stated)
  6.31µM* | -0.2% | ? | 3.1% | -4.0% | 2.6%
- CN(Cc1ccco1)c1ncnc2ccc(-c3ccc4c(ccn4C)c3)cc12
  -1.2% | -0.6% | 18.3% | nt | nt | 6.51µM*
- COc1cc(OC)c2nc(-c3cc4c(c(OC)c3)OCCN(Cc3cn(C)nc3C)C4)cc(C)c2c1
  0.8% | nt | nt | nt | nt | nt
- O=c1cc(C(F)(F)F)[nH]c2ccc(OC(F)(F)F)cc12
  35.5µM* | -0.1% | -1.2% | 2.1% | ? | ?
- Cc1ccc(NC(=O)c2ccccc2NS(=O)(=O)c2ccc(Cl)s2)cc1S(=O)(=O)N1CCOCC1
  39.8µM* | 0.1% | -0.8% | -4.3% | ? | ?
- COc1ccc(CN2CCC3(CC2)c2ccccc2[C@@H](NC(=O)c2ccccc2OC)[C@@H]3O)cc1O
  0.6% | nt | nt | nt | nt | nt
- O=C(NCc1ccncc1)c1cnn(-c2nccc(-c3cc4ccccc4o3)n2)c1C1CC1
  4.7% | nt | nt | nt | nt | nt
- Cc1ccc(NS(=O)(=O)c2ccc3ccccc3c2)cc1C
  nt | nt | 4.8% | nt | nt | nt
- COc1ccc(C2Nc3ccccc3C(=O)N2Cc2ccco2)cc1COc1ccc(F)cc1 (configuration not stated)
  3.9% | 0.6% | 10.1% | 14.1µM* | 12.5% | -12.0%
- COc1ccc(C2Nc3ccccc3C(=O)N2Cc2ccco2)cc1CN1C(=O)c2ccccc2C1=O (configuration not stated)
  -1.4% | -0.9% | 14.4% | 20µM*! | -8.2% | ?
- CCC(=O)N1CCN(c2cc3c(cc2F)c(=O)c(C(=O)O)cn3CC)CC1
  0.9% | nt | -4.6% | nt | nt | nt
- CCCOc1ccc(C(=O)NC(=S)N2CCN(c3cc4c(cc3F)c(=O)c(C(=O)O)cn4CC)CC2)cc1
  35.5µM* | -0.1% | 1.1% | nt | -1.7% | ?
- CCn1cc(C(=O)O)c(=O)c2cc(F)c(N3CCN(C(=S)NC(=O)c4ccc(F)cc4)CC3)cc21
  -1.9% | -0.7% | ? | -4.1% | -18.8% | 0.1%
- CCn1cc(C(=O)O)c(=O)c2cc(F)c(N3CCN(S(=O)(=O)c4ccc(NC(=O)OC)cc4)CC3)cc21
  31.6µM* | 0.0% | ? | 0.7% | 0.0% | 5.9%
- CC(=O)Nc1sc2c(c1-c1nc3ccccc3s1)CCS(=O)(=O)C2
  nt | nt | 16.9% | nt | nt | nt

Brought forward from above: three entries, followed by the next part.
Every second line gives: PINK1 expr mod | B2AR arrestin | Pin1 inhibitor | PKM2 act | miR-21 FLuc | Chronic BCR inh
- CCn1cc(C(=O)O)c(=O)c2cc(F)c(N3CCN(C(=S)NC(=O)c4ccc(F)cc4)CC3)cc21
  -1.9% | -0.7% | ? | -4.1% | -18.8% | 0.1%
- CCn1cc(C(=O)O)c(=O)c2cc(F)c(N3CCN(S(=O)(=O)c4ccc(NC(=O)OC)cc4)CC3)cc21
  31.6µM* | 0.0% | ? | 0.7% | 0.0% | 5.9%
- CC(=O)Nc1sc2c(c1-c1nc3ccccc3s1)CCS(=O)(=O)C2
  nt | nt | 16.9% | nt | nt | nt
- COCc1ccc(CN2CCOc3ccc(C4=Cc5ccccc5C4)cc3C2)o1
  0.9% | nt | nt | nt | nt | nt
- O=C(Cc1ccc(-n2c(=O)c3ccccc3n(Cc3ccccc3Cl)c2=O)cc1)NCC1CCCO1 (configuration not stated)
  -0.1% | -0.7% | 9.6% | -10.7% | -7.3% | 2.82µM*
- O=C(Cc1ccc(-n2c(=O)c3ccccc3n(Cc3ccc(F)cc3)c2=O)cc1)NCC1CCCO1 (configuration not stated)
  3.3% | -1.3% | 12.4% | 0.0% | -9.8% | 8.2µM*
- O=C(Cc1ccc(-n2c(=O)c3ccccc3n(Cc3ccccc3F)c2=O)cc1)NCC1CCCO1 (configuration not stated)
  1.8% | -0.8% | 49.1% | -0.6% | -9.7% | ?
- CCc1ccccc1NC(=O)Cn1c(=O)n(-c2ccc(CC(=O)NCC3CCCO3)cc2)c(=O)c2ccccc21 (configuration not stated)
  0.6% | 0.1% | -1.8% | 0.7% | 0.0% | -1.3%
- CCc1nc(CN2CCOc3ccc(C(O)C4CCCCC4)cc3C2)c(C)[nH]1 (configuration not stated)
  1.9% | nt | nt | nt | nt | nt
- O=C(CSc1nc2c(c(=O)[nH]1)CN(Cc1ccc(F)cc1)CC2)Nc1ccc(F)cc1
  9.1% | -0.5% | 1.7% | 15.8µM* | 2.7% | ?
- Cc1ccc(NC(=O)CSc2nc3c(c(=O)[nH]2)CN(Cc2ccc(F)cc2)CC3)cc1C
  3.2% | -0.9% | 11.0% | -3.0% | -5.2% | 10.7%
